Test results: patent US12583873B2, “Amino acid mineral complex having immunopotentiating activity and composition for foods, pharmaceuticals, or feeds comprising same” (priority 2018, dated 2026)

Settings: pig, in vivo

## zinc-aspartic acid complex [Example 1-1]
  Zinc: 158b μg/dL
  Zinc content in blood as compared to CON 1 and CON 2: increased significantly

## zinc-aspartic acid complex [Comparative Example 3]
  Zinc: 180ab μg/dL
  Zinc content in blood as compared to CON 1 and CON 2: increased significantly
